From patent publication US8278033B2, “Efficient well being assessment and improved treatment protocol” (priority 2008, dated 2012)

Test system: endothelial cells
Assay: Anti-vascular score (AVS) on Fast Green/H&E slides of tumor cell cultures, averaged over paired comparisons
Format: cell-based, human
Parameters: key: 10x the 0+ to 5+ anti-microvascular score (max 50)
Settings: 10x multiples of the 0+ to 5+ score, average of N paired comparisons; bevacizumab 2.5 mg/ml, DMSO 0.5% + EtOH 0.5%, cisplatin 3.3, sunitinib 8.35, gefitinib 22.35, erlotinib 89.4, sorafenib 12.5, imatinib 12.5 μg/ml
Description: Solid tumors are minced to pieces smaller than 1 mm (small enough to be aspirated into a standard disposable 10 ml pipette) with high quality curved surgical scissors. Medium in which said tumors may have been transported is reserved, along with the supernatant from the tissue mince. Scissor-minced tumor pieces are digested with collagenase/DNase in RPMI-1640 containing antibiotics and 10% fetal calf serum. Specimens are digested in 50 ml disposable polypropylene centrifuge tubes, assisted by gentle mixing with plastic-coated, magnetic stirring bars over a stirring plate. Specimens are thusly mixed until complete gross digestion has taken place—typically about 2-3 hours for a 1-3 gram specimen. Cytospin slides are then prepared from all cell fractions (transport medium, supernatant from tissue mince, and enzyme digestate), and stained with fast green-H&E, as described previously (Weisenthal, et al., “A Novel Dye Exclusion Method for Testing in vitro Chemosensitivity of Human Tumors,” Cancer Res. (1983) 43:749-757).
Final volume of cell suspension/drug solution (or vehicle) plated for culture can be 0.12 ml. […]
Cells are cultured with the index concentration of each drug and, if desired, with dilutions of the index concentration, where the index concentration is determined from training set assays or from the literature. […]

For `CNC(=O)c1cc(Oc2ccc(NC(=O)Nc3ccc(Cl)c(C(F)(F)F)c3)cc2)ccn1` [Sorafenib, sorafenib], the “Anti-Vascular Score (AVS) (Avg)” value was 12.2.
